# Ab-14 light chain CDR variants: yeast mating affinities

Reference: Li et al. 2023, doi:10.1038/s41467-023-39022-2. File: FLAb, binding data.

All variants were tested on one target, the spike HR2 peptide PDVDLGDISGINAS (SARS-CoV-2).

Each scFv is VH, three GGGGS repeats, VL, as in the parent Ab-14, and differs from it in the CDRs of the light chain only.
VH: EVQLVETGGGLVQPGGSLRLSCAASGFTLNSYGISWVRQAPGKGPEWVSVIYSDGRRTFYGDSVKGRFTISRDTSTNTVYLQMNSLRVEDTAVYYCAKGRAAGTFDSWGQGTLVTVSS
VL: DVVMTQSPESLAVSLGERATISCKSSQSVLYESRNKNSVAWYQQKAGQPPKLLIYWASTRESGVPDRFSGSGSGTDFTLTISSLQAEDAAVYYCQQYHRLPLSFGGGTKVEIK

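Phage display of a naive human antibody library on the peptide gave the parent. The variants were designed computationally from a first round of random CDR variants and then made and measured. Their group label is 14L_Rand (Rand: our label for a block that the file lists under HC and that is probably the random mutants of the ten best first-round binders). The assay is AlphaSeq: two haploid yeast populations carry antibody and antigen on their surface. Binding brings cells together so that they mate, and sequencing counts the barcode pairs among the diploids. Read counts were normalised to the haploid input and turned into Kd by a linear fit to BCL2-family pairs of known affinity, for each replicate. Each pool was mated in six replicate cultures.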

Each variant is given by its three light chain CDRs, as the data file delimits them; those of the parent are KSSQSVLYESRNKNSVA, WASTRES, QQYHRLPLS.
Affinities are written as log10 Kd with Kd in nM; a lower number is a better binder.
"n.d." means that the variant was in the library but no mating with the target was seen in that replicate; the authors take this as a sign of poor binding, and no number exists.
Of ten entries with the parent sequence, four were seen in most replicates (averages 0.34 to 2.37), three in one and three in none, so single entries are noisy.
Nonspecific signal, from three strains lacking the peptide, appeared in 4% of pairings of all light chain designs, centred on 2.64 (5% of these signals below 1.59); values are not corrected for it. The control count says in how many pairings with the empty strains this scFv gave a signal, with their mean in brackets.
The authors' rule: three or more of the six replicates give a measured affinity, fewer mean a poor binder.
Values of this round are not directly comparable with the first-round values of the same sequences.

{"CDR-L1": "KLRQSTLYESRNKNSVA", "CDR-L2": "WPSTRIS", "CDR-L3": "QQYHRLPLS", "replicates, log10 nM": "n.d. n.d. n.d. n.d. n.d. n.d.", "empty controls": "0/18"}
{"CDR-L1": "HSSPSVLYESRNKNSVA", "CDR-L2": "NASTRES", "CDR-L3": "QWYRRLPLS", "replicates, log10 nM": "0.97 1.36 1.03 1.32 1.67 1.66", "empty controls": "0/18"}
{"CDR-L1": "KSSQSVLFESRNKVSVA", "CDR-L2": "DASTRES", "CDR-L3": "QQYHRLPLS", "replicates, log10 nM": "0.11 0.21 0.23 0.07 0.07 0.28", "empty controls": "4/18 (3.26)"}
{"CDR-L1": "KSSISYLYESRNKNSVA", "CDR-L2": "LHSTRES", "CDR-L3": "QQYHRLPLS", "replicates, log10 nM": "n.d. n.d. n.d. n.d. n.d. n.d.", "empty controls": "0/18"}
{"CDR-L1": "KSDIWYLYESRNKNSVA", "CDR-L2": "EASTRES", "CDR-L3": "QQYHRLPLS", "replicates, log10 nM": "0.44 0.38 0.16 0.24 0.28 0.37", "empty controls": "4/18 (2.96)"}
{"CDR-L1": "QSSQSFLYESRNKNSVA", "CDR-L2": "GASTRES", "CDR-L3": "QQYHRLTLS", "replicates, log10 nM": "0.18 -0.58 -0.83 -0.44 -0.55 -0.82", "empty controls": "0/18"}
{"CDR-L1": "KQSQSVLYESRNKNSVA", "CDR-L2": "DASTRES", "CDR-L3": "QQYHRLPLD", "replicates, log10 nM": "1.28 0.80 1.07 0.98 0.79 0.95", "empty controls": "2/18 (2.52)"}
{"CDR-L1": "KSSQSQLYESRNKNSVA", "CDR-L2": "GASTRES", "CDR-L3": "QQYHRLTLS", "replicates, log10 nM": "n.d. 1.31 n.d. 0.72 n.d. 1.82", "empty controls": "1/18 (3.30)"}
{"CDR-L1": "KLVNSTLYESRQKNSVA", "CDR-L2": "WASTRES", "CDR-L3": "QQYHRLPLS", "replicates, log10 nM": "2.88 n.d. 2.35 1.49 3.12 3.65", "empty controls": "0/18"}
{"CDR-L1": "KLRQSTLYKSRNKPSVA", "CDR-L2": "WASTRES", "CDR-L3": "QQYHWLPLS", "replicates, log10 nM": "n.d. n.d. 2.57 n.d. 4.61 n.d.", "empty controls": "0/18"}
{"CDR-L1": "KSLQSVLYESRDKNSVA", "CDR-L2": "HASTRED", "CDR-L3": "QQYHWLPLS", "replicates, log10 nM": "0.57 0.62 0.26 0.26 0.57 0.86", "empty controls": "1/18 (0.52)"}
{"CDR-L1": "KFSQSVLYESTTYNSVA", "CDR-L2": "NASTRES", "CDR-L3": "QQYHRLPLS", "replicates, log10 nM": "0.41 0.48 0.33 0.24 0.39 0.70", "empty controls": "0/18"}
{"CDR-L1": "KSSWSVLFNSRNKNSVA", "CDR-L2": "DASTRES", "CDR-L3": "QQLHRLPLS", "replicates, log10 nM": "n.d. n.d. n.d. n.d. n.d. n.d.", "empty controls": "0/18"}
{"CDR-L1": "KSSQSQLYESRNKNSIA", "CDR-L2": "GASTREC", "CDR-L3": "QQYHRLTLS", "replicates, log10 nM": "1.02 -0.28 0.74 0.23 1.10 0.22", "empty controls": "0/18"}
{"CDR-L1": "KFSDSVLLESRTKNRVA", "CDR-L2": "NASTRES", "CDR-L3": "QQYHRLGLS", "replicates, log10 nM": "2.47 2.98 n.d. 2.63 n.d. 2.82", "empty controls": "2/18 (2.07)"}
{"CDR-L1": "KSSQSFLYESRTKNSVA", "CDR-L2": "GASTRES", "CDR-L3": "YQYHRLTLS", "replicates, log10 nM": "n.d. n.d. n.d. n.d. n.d. n.d.", "empty controls": "0/18"}
{"CDR-L1": "KQSQSVLYESRNKNSVA", "CDR-L2": "DASTRES", "CDR-L3": "QQYHRLMLS", "replicates, log10 nM": "-0.09 -0.75 -0.27 -0.54 -0.77 -0.19", "empty controls": "2/18 (2.06)"}
{"CDR-L1": "KLWQSTLYESRNKNSVA", "CDR-L2": "WAPTRES", "CDR-L3": "QQYHRLPVS", "replicates, log10 nM": "n.d. n.d. n.d. n.d. n.d. n.d.", "empty controls": "0/18"}
{"CDR-L1": "KQSQSVLYESRNKNSVA", "CDR-L2": "DASWRES", "CDR-L3": "QQYHRLPLM", "replicates, log10 nM": "1.01 0.62 0.72 0.88 0.55 1.02", "empty controls": "0/18"}